Experimental data reported in ChEMBL document CHEMBL1687783, “Prevalence and dissemination of oqxAB in Escherichia coli isolates from animals, farmworkers, and the environment” (2010).

What was measured:
Escherichia coli [1] = details: C600
Escherichia coli [2] = details: DH5[alpha]

For GENTAMICIN, which MIC (Escherichia coli [1]) is on record?
The MIC was 0.5 µg/mL.

What about the MIC (Escherichia coli [2]) of the same sequence?
Its MIC is 0.5 µg/mL.
